“Also recorded” adds a separate entry of the source.

Assay [1] has as its system human erythroid precursor cells. Kind of assay: Uptake of FITC-labeled ferritin-H, fluorescence microscopy. The class given is cell-based. To be noted: 1 hour at 37 degrees C. Here is the method:
Microscopy. Cells transfected with EGFP (enhanced green fluorescent protein) vector (FIGS. 13 & 14) and cells transduced with FITC-labeled ferritin-H protein (FIGS. 24 & 25) were viewed with a Nikon Optiphot microscope with epi-fluorescence optics. For confocal microscopy, cells were fixed with 1% formaldehyde 48 hours after transfection, and stained with DAPI nuclear stain. Images were obtained using a Leica TCS NT laser-scanning confocal microscope and were analyzed with Leica TCS software.

Assay [2] relates to erythroid precursor cells from pediatric sickle cell disease patients. Kind of assay: HbS-to-HbF switching in two-phase culture, HPLC of hemoglobins and immuno-HbF fluorescence. The class given is cell-based, human. Conditions: FIG. 23.

For “FtH-FITC: ferritin-H protein labeled with FITC florescent dye”, the “uptake after pre-incubation with protein transfection reagent (Chariot)” value in assay [1] (FIG. 25 D) was “more intense fluorescence”. In addition, in assay [1] (FIGS. 24 and 25), the “uptake from the surrounding medium without transfection reagent” value is “took up”.

With “ferritin-H protein: heavy chain (H) type subunit of ferritin; product of human FTH1 gene; repressor of β-globin gene”, the HbS-to-HbF hemoglobin switch entry in assay [2] (administered day 1 of phase II culture with rhEpo, HPLC, observed 23 days to 4 weeks after administration) is given as “total switch; also recorded: complete HbS-to-HbF switch”. For the same substance, in assay [2] (immuno-HbF fluorescence), the “cellular distribution of HbF production” value is recorded as “pancellular”.
